# Data published in PubChem BioAssay AID624246 (National Center for Advancing Translational Sciences (NCATS), 2012).
# Sequences of proteins named here, by UniProt entry; tags and fusion partners are left off. A change or cut given only in a name is not applied to a line headed by its entry.
# UniProt P11308: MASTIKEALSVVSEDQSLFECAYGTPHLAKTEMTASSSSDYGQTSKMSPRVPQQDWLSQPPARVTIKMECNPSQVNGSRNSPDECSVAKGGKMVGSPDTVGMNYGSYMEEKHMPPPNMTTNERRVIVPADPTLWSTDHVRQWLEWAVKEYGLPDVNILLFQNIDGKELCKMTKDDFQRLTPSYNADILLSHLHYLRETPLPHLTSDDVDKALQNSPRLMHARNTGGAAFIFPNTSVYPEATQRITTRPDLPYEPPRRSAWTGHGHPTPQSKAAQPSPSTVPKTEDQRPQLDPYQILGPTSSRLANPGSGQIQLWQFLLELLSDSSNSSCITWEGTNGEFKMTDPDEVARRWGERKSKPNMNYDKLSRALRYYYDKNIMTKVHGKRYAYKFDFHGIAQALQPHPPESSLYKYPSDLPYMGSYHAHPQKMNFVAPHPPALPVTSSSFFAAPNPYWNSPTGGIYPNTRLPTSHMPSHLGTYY
# This is a selection; strong and weak results do not stand in their true shares. Calls of active or inactive are those of the source. Calls follow the shape of the dose curve; as a rule, active = well fitted inhibition curve with a large enough effect in the polarisation, with a control signal flat; inconclusive = small, poorly fitted or top-dose-only effect, or effect the other way, or a change in a side signal; inactive = no such curve, though single readings can be large or run the other way; the % refers to the polarisation.
# Biological target: Transcriptional regulator ERG (Homo sapiens) (UniProt P11308)
# Assay: qHTS for Small Molecule Inhibitors of the ERG Ets/DNA interaction; also: % of control where 0% means no effect
# Conditions: fluorescence polarization, His-ERG Ets domain / labelled DNA; at 76.9 µM (top of the series)
# Text: The Ets family of proteins is a family of ~30 conserved transcription factors defined by the presence of an ~85 amino acid domain referred to as the Ets domain, which mediates sequence-specific DNA binding to a core DNA element GGAA/T.The Ets family member ERG has been linked to several neoplasms. […] More extensive studies of the effects of over-expression of ERG in prostate cells have recently been carried out and have shown that over-expression of ERG results in increased invasion. […] We will carry out a high throughout screen to identify inhibitors of the interaction between ERG and DNA using a fluorescence polarization (FP) assay with a His-tagged ERG Ets domain and fluorescently-labeled DNA probes to develop small molecule inhibitors of this interaction as probes to test this hypothesis and lay the groundwork for the development of targeted therapies against ERG. NIH Molecular Libraries Probe Production Network [MLPCN] NIH Chemical Genomics Center [NCGC] Grant: NS066464 PI Name: John Bushweller, University of Virgina
# 1.5 ul of protein solution (1 uM ERG domain in 300mM KCl, 50mM Tris-HCl, 1mM EDTA, 1mM DTT, pH 7.5); 20 nl Control plate and compound library plate; 1.5 ul mixture of 5 nM Fluorescein-DNA and 100nM Texas-615-DNA solution in same buffer as above solution; measure fluorescence polarization sequentially for fluorescein (Excitation = 480 nm, Emission = 535s, 535p nm) and Texas red (Excitation = 555 nm, Emission = 632s, 632p nm).
row,SMILES,"FP activity, negative = inhibition"
1,O=P1(N(CCCl)CCCl)OCCC2CCCCN21 (stereo unspecified),inactive: 3.71%
2,CCNC(=S)/N=C(\N)N[N+](=O)[O-],inactive: 12.5%
3,O=C(NC1CCS(=O)(=O)C1)NP(=S)(Oc1ccccc1)Oc1ccccc1 (stereo unspecified),inactive: -15.9%
4,c1ccc(-c2nn[nH]n2)c(-c2nn[nH]n2)c1,inactive: -5.43%
5,Cc1ccc(NP(=O)(Oc2cccc(C)c2)Oc2cccc(C)c2)nc1,inactive: 0.92%
6,Cc1ccccc1OP(=O)(Nc1ccccn1)Oc1ccccc1C,inactive: -18.3%
7,CC(NC(=O)COC(=O)C(O)(c1ccccc1)c1ccccc1)c1ccccc1 (stereo unspecified),inactive: 4.79%
8,CN(C)C(=O)Oc1noc2ccccc12,inactive: -3.43%
9,O=c1c2cc([N+](=O)[O-])ccc2[nH]c2c([N+](=O)[O-])cc([N+](=O)[O-])cc12,inactive: 4.32%
10,COC(=O)c1cc2c(s1)N=C(c1ccccc1)N(C)P2(=O)N1CCOCC1 (stereo unspecified),inactive: -5.3%
11,Cc1ccc(OP(=O)(Nc2ccccn2)Oc2ccc(C)cc2)cc1,inactive: -2.19%
12,CC(=O)NC(SC(=S)N(CC(C)C)CC(C)C)C(Cl)(Cl)Cl (stereo unspecified),inactive: -6.08%
13,O=C(OC1CN2CCC1CC2)c1ccccc1 (stereo unspecified),inactive: 12.2%
14,CCC(=O)N1C2C3N(C(=O)CC)C1C1N(C(=O)CC)C(C(N1C(=O)CC)N3C(=O)CC)N2C(=O)CC,inactive: -0.235%
15,CCc1cc(O)c([N+](=O)[O-])c(C)c1[N+](=O)[O-],inactive: 26.3%
16,CC(C)(C)C(=O)NC(Sc1ccccc1)C(Cl)(Cl)Cl (stereo unspecified),inactive: -9.55%
17,O=P1(Nc2nc3ccc(Cl)cc3s2)COc2ccccc2O1 (stereo unspecified),inactive: 6.53%
18,CCOc1ccc(C2=NCC(CBr)S2)cc1 (stereo unspecified),inactive: -2.46%
19,CC(=O)Nc1ccc([As](=O)(O)O)c(O)c1,inactive: -3.52%
20,CC(=O)Nc1ccc(Oc2c([N+](=O)[O-])cc([N+](=O)[O-])cc2[N+](=O)[O-])cc1,inactive: -4.77%
21,N#C/C(=C\c1ccc(N(CCBr)CCBr)cc1)C(N)=O,inactive: 3.39%
22,CC(=O)c1ccc(N2CC2c2ccncc2)cc1 (stereo unspecified),inactive: -11.7%
23,COC(=O)C1(C)COP(=O)(NCc2ccccc2)OC1 (stereo unspecified),inactive: 7.11%
24,C[C@@H]1C=CCP(=O)(Oc2ccccc2)O1 (stereo partly specified),inactive: -0.95%
25,C[C@H]1OP(=O)(Oc2ccccc2)C[C@@H]2O[C@@H]21 (stereo partly specified),inactive: -5.42%
26,c1nnnn1CCn1cnnn1,inactive: 2.77%

row,SMILES,"FP activity, negative = inhibition"
1,CC(C)C(=O)NC(Sc1ccccc1)C(Cl)(Cl)Cl (stereo unspecified),inactive: 0.0519%
2,O=P(Nc1nccs1)(c1ccccc1)c1ccccc1,inactive: -5.09%
3,O=P(Nc1nc2ccccc2s1)(c1ccccc1)c1ccccc1,inactive: -4.18%
4,C[C@H]1OP(=O)(Oc2ccccc2)[C@H](O)[C@H](O)[C@H]1N=[N+]=[N-] (stereo partly specified),inactive: 8.57%
5,COc1ccc(N)c([N+](=O)[O-])c1[N+](=O)[O-],inactive: 13.6%
6,O=P(Nc1ccccn1)(c1ccc(Br)cc1)c1ccc(Br)cc1,inactive: 6.86%
7,CN(C)C1(CNC(=O)c2ccc(Cl)c(S(N)(=O)=O)c2)CCCCC1,inactive: -13.9%
8,Nc1ccc([As](=O)(O)c2ccc([N+](=O)[O-])cc2)cc1,inactive: -6.64%
9,C(Cc1nn[nH]n1)Cc1nn[nH]n1,inactive: -2.18%
10,O=C(OC1CN2CCC1CC2)c1cccc(Cl)c1 (stereo unspecified),inactive: -8.13%
11,O=[N+]([O-])c1ccc(O)c(/C=N/Nc2ccc([N+](=O)[O-])cc2[N+](=O)[O-])c1,inactive: -7.47%
12,O=[N+]([O-])c1ncn(CCn2cnc([N+](=O)[O-])n2)n1,inactive: -16.1%
13,CC(=O)NC(SC(=S)N(C)C)C(Cl)(Cl)Cl (stereo unspecified),inactive: -3.54%
14,O=[As](O)(c1ccccc1)c1ccc(O)cc1,inactive: 13.8%
15,O=C(Nc1cc([As](=O)(O)O)ccc1O)c1ccccc1,inactive: 15.2%
16,O=P1(N(CCCl)CCCl)OCCCS1 (stereo unspecified),inactive: -1.13%
17,O=[N+]([O-])c1cccc(NC2=NCC(CBr)S2)c1 (stereo unspecified),inactive: 1.73%
18,COC(=O)C1(C)COP(=O)(Nc2ccccc2)OC1 (stereo unspecified),inactive: 4.73%
19,O=C(O)CNc1ccc([As](=O)(O)O)cc1,inactive: 16.8%
20,CC(C)(C)C(=O)NC(Sc1ccncn1)C(Cl)(Cl)Cl (stereo unspecified),inactive: 8.27%
21,O=[N+]([O-])c1ncn(CCn2ncnc2[N+](=O)[O-])n1,inactive: -7.18%
22,O=[N+]([O-])c1cccc2n[nH]nc12,inactive: 2.63%
23,CC(=O)N1C2C3N(C(C)=O)C1C1N(C(C)=O)C(C(N1C(C)=O)N3C(C)=O)N2C(C)=O,inactive: 3.85%
24,Cc1ccc(NP(=O)(Oc2ccccc2)Oc2ccccc2)nc1,inactive: 18.1%
25,CCc1nc2c(n1)c1c(non1O)c1c2no[n+]1[O-],inactive: -2.06%
26,O=[N+]([O-])c1cc([N+](=O)[O-])c(CCNc2ccccc2)c([N+](=O)[O-])c1,inactive: 0.983%

row,SMILES,"FP activity, negative = inhibition"
1,COc1ccc(C2=NCC(CBr)S2)cc1 (stereo unspecified),inactive: 4.21%
2,CC(C)=N/N=C(\N)N[N+](=O)[O-],inactive: 7.99%
3,CN(C)C(=O)OCCc1n(C)cc[n+]1C,inactive: -2.79%
4,CC1CCN(C(=O)Oc2c(Cl)cc(Cl)c3cccnc23)CC1,inactive: 0.845%
5,Nc1ccc([As](=O)(O)c2ccc(N)cc2)cc1,inactive: -8.78%
6,C[N+]1=C2C=CC=CC=C2SC12C([N+](=O)[O-])=CC([N+](=O)[O-])=C[C-]2[N+](=O)[O-] (stereo unspecified),inactive: -8.37%
7,CCN(/C(=N/P(=O)(N1CCOCC1)N1CCOCC1)N1CCOCC1)c1ccc(OC)cc1,inactive: -20.4%
8,COc1ccccc1OP(=O)(Nc1ccc(C)cn1)Oc1ccccc1OC,inactive: 4.88%
9,Cc1ccc(OP(=O)(Nc2nccs2)Oc2ccc(C)cc2)cc1,inactive: 3.44%
10,Clc1ccc(Cl)c(NC2=NCC(CBr)S2)c1 (stereo unspecified),inactive: -5.33%
11,CN1CCCC(OC(=O)C(c2ccccc2)c2ccccc2)C1 (stereo unspecified),inactive: 8.98%
12,NC(=O)c1cc([N+](=O)[O-])cc([N+](=O)[O-])c1N,inactive: -2.63%
13,CN(C(=O)Cc1ccc(Cl)c(Cl)c1)[C@H]1CCCC[C@H]1N1CCCC1,inactive: -8.88%
14,Cc1ccc(N/C(=N/P(=O)(N2CCOCC2)N2CCOCC2)N2CCOCC2)cc1,inactive: -6.6%
15,Nc1cc(N)c2nonc2c1[N+](=O)[O-],inactive: -3.63%
16,O=C(NC(Sc1ccncn1)C(Cl)(Cl)Cl)c1ccccc1 (stereo unspecified),inactive: 5.52%
17,CCOP(=O)(Nc1ccccc1)OCC,inactive: -11.4%
18,Cc1cc(SC(NC(=O)c2ccc(F)cc2)C(Cl)(Cl)Cl)ncn1 (stereo unspecified),inactive: -16.5%
19,Cc1ccc(NP(=O)(Oc2ccccc2F)Oc2ccccc2F)nc1,inactive: 3.06%
20,CN(C(=O)Cc1ccc(Cl)c(Cl)c1)[C@H]1CCCC[C@@H]1N1CCCC1,inactive: -12.1%
21,O=C(O)c1ccccc1[As](=O)(O)O,inactive: 7.4%
22,CC(=O)Nc1ccc([As](=O)(O)O)cc1,inactive: -10%
23,CCCC1OP(N)(=O)OCC1CC (stereo unspecified),inactive: -8.09%
24,O=P(Nc1nc2ccc(Cl)cc2s1)(c1ccccc1)c1ccccc1,inactive: -3.14%
25,CCN(N=Nc1nonc1N)c1nonc1N,inactive: -11.2%
26,Nc1cccc2ccc([As](=O)(O)O)cc12,inactive: -8.83%

row,SMILES,"FP activity, negative = inhibition"
1,Cc1ccc2nc3c(c(C)c2c1)CC(C(Cl)Cl)S3 (stereo unspecified),inactive: 2.35%
2,Cc1ccc(OP(=O)(Nc2ccc([N+](=O)[O-])cn2)Oc2ccc(C)cc2)cc1,inactive: -13.3%
3,O=[As](O)(c1ccc(O)cc1)c1ccccc1O,inactive: -3.95%
4,C[As](=O)(O)c1cccc(C(=O)O)c1,inactive: -0.333%
5,COc1cc(C(=O)NCC2(N3CCOCC3)CCCCC2)ccc1OCC(C)C,inactive: -4.41%
6,O=[N+]([O-])c1ccc(-c2cc([N+](=O)[O-])c(O)c([N+](=O)[O-])c2)cc1,inactive: -5.93%
7,O=C(OC1CN2CCC1CC2)c1cccc2[nH]cnc12 (stereo unspecified),inactive: -1.54%
8,CCN(CC)C(=S)SC(NC=O)C(Cl)(Cl)Cl (stereo unspecified),inactive: 0.0095%
9,CC(C)NC(=O)NP(=O)(Oc1ccccc1)Oc1ccccc1,inactive: 20%
10,O=[N+]([O-])c1cc([N+](=O)[O-])c(-c2ccn[nH]2)s1,inactive: -9.53%
11,CC(C)c1ccc(OP(=O)(Nc2ccccn2)Oc2ccccc2F)cc1 (stereo unspecified),inactive: -4.58%
12,COC(=O)C1(C)COP(=O)(N2CCCCCC2)OC1 (stereo unspecified),inactive: -0.4%
13,ClCCSc1nnc(-c2cccnc2)o1,inactive: -5.99%
14,COc1ccc2nc(NP(=O)(c3ccccc3)c3ccccc3)sc2c1,inactive: 4.93%
15,COc1cc(I)ccc1[As](=O)(O)O,inactive: -9.75%
16,O=P1(N(CCCl)CCCl)Nc2ccccc2N1,inactive: -1.3%
17,O=C(OC1CN2CCC1CC2)C12CC3CC(CC(C3)C1)C2 (stereo unspecified),inactive: 2.23%
18,Cc1cc(=O)[nH]c(N[N+](=O)[O-])n1,inactive: -4.72%
19,Cc1c2c(nc3ccccc13)SC(C(Cl)Cl)C2 (stereo unspecified),inactive: -3%
20,COc1ccc(N/C(=N/P(=O)(N2CCOCC2)N2CCOCC2)N2CCOCC2)cc1,inactive: -14.1%
21,O=C(COc1ccccc1)OC1CN2CCC1CC2 (stereo unspecified),inactive: -5.39%
22,O=C(Nc1ccncc1[N+](=O)[O-])c1ccc([N+](=O)[O-])cc1[N+](=O)[O-],inactive: 0.791%
23,CCC(C)N(CC(C)C)C(=S)SC(NC(C)=O)C(Cl)(Cl)Cl (stereo unspecified),inactive: -1.05%
